Laboratory results: ChEMBL document CHEMBL4028855, “New Mandelalides Expand a Macrolide Series of Mitochondrial Inhibitors” (J Med Chem, 2017)

Tested on: HeLa
Assay: Cytotoxicity against human HeLa cells assessed as reduction in cell viability measured after 48 hrs by MTT assay
Type: functional, cell-based

For `CO[C@H]1[C@H](O[C@@H]2C[C@@H]3C/C=C/C(=O)O[C@H](CO)C[C@H](O)[C@@H]4C[C@H](C)[C@H](C/C=C\C=C\[C@H](C)C[C@H](C2)O3)O4)O[C@@H](C)[C@H](O)[C@H]1O`, the Activity was “Dose-dependent effect”.
